## Reported intrinsic clearance values for industrial, environmental and drug-like chemicals

Source: data files of OPERA 2.9 (Mansouri et al.), github.com/kmansouri/OPERA.

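These are experimental values that the OPERA curators gathered from public databases to train and test their QSAR models. One number stands for a compound and property, with no spread given. Conditions of the individual experiments are not part of the data. The measured form (salt, isomer or mixture) is not always the one drawn. Some entries may be limits or estimates that an upstream database listed as plain numbers.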

Intrinsic clearance (human, µL/min per 10^6 hepatocytes): higher is faster turnover, and 0 stands for none detected.
Cells with "n/a" have no entry in this list.

| SMILES | name | intrinsic clearance (µL/min/10^6 cells) |
|---|---|---|
| CN(C)C(=O)C(c1ccccc1)c1ccccc1 | Diphenamid | 0 |
| COC(=O)NS(=O)(=O)c1ccc(N)cc1 | Asulam | 1.8 |
| ClC(Cl)=C(Cl)Cl | n/a | 0.0109 |
| CCCCC1(CC)C(=O)NC(=O)NC1=O | Butylbarbitone | 1.9 |
| CCCN(CCC)c1c([N+](=O)[O-])cc(S(N)(=O)=O)cc1[N+](=O)[O-] | Oryzalin | 20.2 |
| Nc1ccc(/N=N/c2ccccc2)cc1 | 4-aminoazobenzene | 15.7 |
| CCC(=NOC/C=C/Cl)C1=C(O)CC(C2CCOCC2)CC1=O (stereo partly drawn) | Tepraloxydim | 3.35 |
| CN(C)c1ccc(Cc2ccc(N(C)C)cc2)cc1 | 4,4'-methylenebis(n,n-dimethylaniline) | 18.85 |
| CC(C)COC(=O)c1ccccc1C(=O)OCC(C)C | Diisobutyl phthalate | 345 |
| Cc1cc(O)ccc1Cl | 4-chloro-3-methylphenol | 0 |
| Oc1ccc(Cl)cc1Cc1ccccc1 | Clorophene | 4.53 |
| CC(C)N(CCC(C(N)=O)(c1ccccc1)c1ccccn1)C(C)C (stereo not drawn) | Disopyramide | 0.46 |
| C/C(=NC#N)/N(C)Cc1c[n]c(Cl)cc1 | n/a | 0 |
| CCOC(=O)C(Cl)Cc1cc(-n2nc(C)n(C(F)F)c2=O)c(F)cc1Cl (stereo not drawn) | Carfentrazone-ethyl | 854 |
| Cc1nn(-c2cc(NS(C)(=O)=O)c(Cl)cc2Cl)c(=O)n1C(F)F | Sulfentrazone | 5.71 |
| CCCCCCCCn1sccc1=O | Octhilinone | 12.72 |
| CCNc1nc(Cl)nc(NC(C)(C)C#N)n1 | Cyanazine | 3.16 |
| Clc1cc(Cl)cc(-c2cc(Cl)cc(Cl)c2)c1 | Pcb80 | 0 |
| ClC1C(Cl)C(Cl)C(Cl)C(Cl)C1Cl (stereo not drawn) | 1,2,3,4,5,6-hexachlorocyclohexane | 0 |
| COc1cnc(OC)n2nc(NS(=O)(=O)c3c(OCC(F)F)cccc3C(F)(F)F)nc12 | Penoxsulam | 0 |
| CCCCC(C#N)(Cn1cncn1)c1ccc(Cl)cc1 (stereo not drawn) | Myclobutanil | 16.4 |
| CCCSC(=O)N(CCC)CCC | Vernolate | 25.1 |
| CCOP(=S)(OCC)OP(=S)(OCC)OCC | Sulfotepp | 101 |
| CCCOC/C(=Nc1ccc(Cl)cc1C(F)(F)F)/[n]1c[n]cc1 | n/a | 19.6 |
| CN1C(=O)C(O)N=C(c2ccccc2)c2cc(Cl)ccc21 (stereo not drawn) | Temazepam | 2.336 |
| Brc1ccc(Oc2ccc(Br)cc2)cc1 | 4,4'-dibromodiphenyl ether | 12.4 |
| COP(=S)(OC)Oc1ccc([N+](=O)[O-])c(C)c1 | Fenitrothion | 10.02 |
| C/C(=CC(=O)N(C)C)/OP(=O)(OC)OC | n/a | 1.89 |
| CS(=O)(=O)c1ccc(C(=O)C2C(=O)CCCC2=O)c([N+](=O)[O-])c1 | Mesotrione | 0.35 |
| O=C(O)C(F)(F)C(F)(F)C(F)(F)C(F)(F)C(F)(F)C(F)(F)C(F)(F)C(F)(F)C(F)(F)C(F)(F)F | Perfluoroundecanoic acid | 0 |
| C[C@H]1CCCC(=O)CCCC=Cc2cc(O)cc(O)c2C(=O)O1 | Zearalenone | 209 |
| CCN(C(C)=O)c1cccc(-c2ccnc3c(C#N)cnn23)c1 | Zaleplon | 2.843 |
| CCCCCCCCCC[N+](C)(C)CCCCCCCCCC.[Cl-] | Didecyl dimethyl ammonium chloride | 18.65 |
| Clc1cccc(Cl)c1 | 1,3-dichlorobenzene | 200 |
| CCOP(=O)(OCC)Oc1ccc([N+](=O)[O-])cc1 | Paraoxon | 0 |
| C#CCN1C(=O)COc2cc(F)c(N3C(=O)C4=C(CCCC4)C3=O)cc21 | Flumioxazin | 8.34 |
| CCCCN(CC)c1c([N+](=O)[O-])cc(C(F)(F)F)cc1[N+](=O)[O-] | Benfluralin | 17.34 |
| CC(C)NC(=O)N1CC(=O)N(c2cc(Cl)cc(Cl)c2)C1=O | Iprodione | 11.7 |
| O=S(=O)([O-])C(F)(F)C(F)(F)C(F)(F)C(F)(F)C(F)(F)C(F)(F)F.[K+] | Potassium perfluorohexanesulfonate | 0 |
| CC(C)(C)C(O)/C(=Cc1ccc(Cl)cc1Cl)/[n]1c[n]c[n]1 (stereo partly drawn) | n/a | 2.59 |
| CO/N=C(/C1=NOCCO1)c1ccccc1Oc1ncnc(Oc2ccccc2Cl)c1F | Fluoxastrobin | 16.35 |
| CCCCOCN(C(=O)CCl)c1c(CC)cccc1CC | Butachlor | 100.8 |
| O=S1(=O)OC(c2cc(Br)c(O)c(Br)c2)(c2cc(Br)c(O)c(Br)c2)c2ccccc21 | Bromophenol blue | 0 |
| c1ccc(-c2ccccc2)cc1 | Biphenyl | 14.18 |
| COCc1cnc(C2=NC(C)(C(C)C)C(=O)N2)c(C(=O)O)c1 (stereo not drawn) | Imazamox | 0 |
| CCC(C)(NC(=O)c1cc(Cl)c(C)c(Cl)c1)C(=O)CCl (stereo not drawn) | Zoxamide | 4.19 |
| Brc1cc(Br)cc(Br)c1 | 1,3,5-tribromobenzene | 0 |
| CN(C)c1ccc(C(=O)c2ccc(N(C)C)cc2)cc1 | Michler's ketone | 39.2 |
| Cc1ccccc1N | 2-methylaniline | 0 |
| Nc1ccccc1C(=O)Oc1ccc2ccccc2c1 | Naphthalen-2-yl 2-aminobenzoate | 846 |

4 of these entries, quoted again:

{"smiles": "COP(=S)(OC)Oc1ccc([N+](=O)[O-])c(C)c1", "name": "Fenitrothion", "intrinsic clearance (µL/min/10^6 cells)": "10.02"}
{"smiles": "CC(C)COC(=O)c1ccccc1C(=O)OCC(C)C", "name": "Diisobutyl phthalate", "intrinsic clearance (µL/min/10^6 cells)": "345"}
{"smiles": "ClC(Cl)=C(Cl)Cl", "intrinsic clearance (µL/min/10^6 cells)": "0.0109"}
{"smiles": "CCCCC1(CC)C(=O)NC(=O)NC1=O", "name": "Butylbarbitone", "intrinsic clearance (µL/min/10^6 cells)": "1.9"}